Assay results published in patent US10709790B2, “Chemical conjugates of Evans Blue derivatives and their use in the production of long-acting therapeutics” (THE UNITED STATES OF AMERICA, AS REPRESENTED BY THE …, priority 2015, dated 2020).

What was measured:
[1] = Ex vivo biodistribution in mice bearing subcutaneous INS-1 tumors; conditions: 2 h after tracer injection, n = 4
[2] = Dynamic small animal PET imaging, time activity curves over the heart region; conditions: TACs over heart region, two-phase exponential fit, tail vein injection of 18F tracer

Which “Biodistribution, Blood, Mean” value [1] does the source give for Exendin-4 here?
The value was 1.027 ID %/g.

What about the “Biodistribution, Bone, Mean” value [1] of the same substance?
Its value is 0.3805 ID %/g.

And the “Biodistribution, Heart, Mean” value [1]?
The value was 0.5582 ID %/g.

What about the “Biodistribution, Liver, Mean” value [1] of the same substance?
Its value is 0.6143 ID %/g.

And the “Biodistribution, Lung, Mean” value [1]?
The value was 2.571 ID %/g.

And the “Biodistribution, Muscle, Mean” value [1]?
Its value is 0.2618 ID %/g.

What about the “Biodistribution, Spleen, Mean” value [1] of the same substance?
The value was 0.4688 ID %/g.

And the “Biodistribution, intestin, Mean” value [1]?
Its value is 0.9583 ID %/g.

What about the “Biodistribution, kidney, Mean” value [1] of the same substance?
The value was 7.684 ID %/g.

What about the “Biodistribution, pancreas, Mean” value [1] of the same substance?
The value was 2.737 ID %/g.

What about the “Biodistribution, stomach, Mean” value [1] of the same substance?
The value was 1.218 ID %/g.

What about the “Biodistribution, Tumor, Mean” value ([1]; INS-1 tumor) of the same substance?
The value was 6.202 ID %/g.

And the tα1/2 [2]?
Its tα1/2 is 0.07 h.
